# Ab-14 light chain CDR variants: yeast mating affinities

All variants were tested on one target, the spike HR2 peptide PDVDLGDISGINAS (SARS-CoV-2).

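The parent was found by panning a naive human phage display library on the peptide. These sequences belong to a second round, designed from the earlier measurements on random variants of the parent. Their group label is 14L_En_HC (En: ensemble of fine-tuned language models; HC: hill climbing; a sequence that several methods proposed may carry one label only). The scFvs were displayed on barcoded MATa yeast, the peptide on MATalpha yeast. Mating (16 h, 30 °C) was followed by selection of diploids and sequencing of their barcodes. Read counts were normalised to the haploid input and turned into Kd by a linear fit to BCL2-family pairs of known affinity, for each replicate. Mating was done six times.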

The variants keep the heavy chain, the linker and the frameworks of Ab-14 (scFv order VH, the linker GGGGSGGGGSGGGGS, VL).
VH: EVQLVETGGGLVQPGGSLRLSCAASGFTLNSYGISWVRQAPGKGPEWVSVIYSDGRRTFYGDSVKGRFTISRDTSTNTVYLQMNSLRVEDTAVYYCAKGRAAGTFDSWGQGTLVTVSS
VL: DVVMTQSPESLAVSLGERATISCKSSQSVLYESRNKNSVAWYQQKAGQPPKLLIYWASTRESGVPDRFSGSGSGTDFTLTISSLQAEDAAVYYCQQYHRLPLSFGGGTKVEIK

Variants are written as CDR1, CDR2 and CDR3 of the light chain (limits as in the source). Parent: KSSQSVLYESRNKNSVA, WASTRES, QQYHRLPLS.
Values are log10 of the apparent Kd in nM; lower means stronger binding.
An entry "ND" has no value in the source: the pair was not observed among the diploids in that replicate. This suggests poor binding but is not conclusive.

CDR-L1 | CDR-L2 | CDR-L3 | log10 Kd (nM) by replicate | control signals
MISQLFMYGSRNYNSVA | QASTRES | QQYDRLPLI | 2.44 2.61 2.27 3.21 2.00 1.59 | 1 of 18 (2.24)
MISDLTMYGLRNVNSVA | DLSNRGS | QQYDRLPLS | 2.60 1.36 1.54 1.30 1.35 1.45 | 3 of 18 (3.40)
MISDLTMYGSRNVNSVA | DLSTRGN | QQYDRLPLS | 0.26 0.07 0.07 0.16 0.08 0.15 | 0 of 18
HLGGTMTWESKAKNSVA | QSNTRAE | QQYHRLPLS | 0.26 0.22 0.17 -0.19 -0.04 0.28 | 4 of 18 (2.27)
KISQMFNVGTKNTNSLA | EMNTRGA | QHYHRLPLS | 2.00 1.44 2.81 2.20 3.05 1.62 | 0 of 18
TFSQSVLYESVHKNNVA | QTSTREE | QQYDHLPLS | 0.00 -0.31 -0.14 0.12 0.11 -0.10 | 0 of 18
KLSYVTHSESRNKNSIA | EMVTREV | QQYDRLPLS | 1.50 1.34 2.10 ND 2.94 4.34 | 0 of 18
TISQSVNMTSHGKNSVA | QAEMREA | QQYDRLPLS | 1.62 0.87 1.70 1.20 0.95 1.18 | 1 of 18 (4.24)
LISGVWDYGSRNYNSVA | QTSTREQ | QQYDRLPLE | 1.20 1.20 1.54 1.06 0.74 1.39 | 0 of 18
QLLMATMQGSYNRNSVA | HAETRED | QSYHRLPLS | 1.28 0.86 0.65 0.48 0.84 0.56 | 0 of 18
ALGTSTLEESRNKNSVA | EMSLRES | QSYNRLPLS | 1.16 1.69 1.05 1.11 1.46 1.58 | 1 of 18 (1.78)
KLSQFYRMESRNKNAVA | DNSTRES | QCYDRLPLS | ND 2.27 2.78 2.17 3.18 1.63 | 0 of 18
HISMSMNWLSRNKNSIA | EESTRES | QQYHRLPLS | ND ND ND ND ND ND | 0 of 18
TISQLMMYESRNKNNVA | GTSTREN | QCYHRLPLS | -0.01 0.00 0.35 0.28 0.31 0.62 | 0 of 18
MISDLMLYGSRARNPIA | NASMREY | QQYHRLPLE | 1.18 1.40 0.51 0.71 0.67 0.86 | 1 of 18 (2.82)
KLSNSVNYLSRVMNSVA | DNSTRES | QQYFRLPLS | 0.23 0.35 0.01 0.12 0.25 0.23 | 1 of 18 (2.51)
TIGQVMHYEDRNKNSVA | QTSTREE | QDYHRLPLS | 1.64 1.38 0.86 1.28 0.94 0.96 | 4 of 18 (3.09)
NISESMYFQSRNTNNIA | EMSTRER | QHYHRLPLS | 0.72 0.70 0.30 0.53 0.49 0.62 | 1 of 18 (2.97)
KFGNMVLTGSYVKNSVA | QSSTREN | QQYHRLPLS | 0.74 0.24 0.77 0.33 0.62 0.61 | 1 of 18 (1.79)
TISGLIMMPSRAKNSVA | NTSTRYQ | QQYHRLPLS | 0.66 0.89 1.09 1.01 1.05 1.40 | 0 of 18
KFGQSVLMGSYVRNSVA | QSETREN | QQYDRLPLS | 0.57 0.75 0.52 0.65 1.16 1.06 | 1 of 18 (1.62)
HVSESVFLQSKMRNSVA | ENSTRES | QQYDRLPLS | 1.89 1.22 2.58 2.60 1.61 1.90 | 1 of 18 (3.33)
TIGQSVHETSRIKNSVA | HASMRED | QQYDRLPLS | 0.60 0.56 0.34 0.60 0.07 0.26 | 0 of 18
KLSMSSLMESRNKNSVA | ENSTRES | QHYHRLPLS | ND ND ND ND ND ND | 0 of 18
KIGHGLTTEQRNRNSVA | QTETRVS | QHYHRLPLS | 1.09 1.64 0.88 1.62 0.99 1.62 | 0 of 18
KISQMYRYEQQNSSSIA | EVNTREQ | QSYHRLPLS | ND ND ND 1.76 ND ND | 2 of 18 (1.45)
KLREVQHVETKSKNNVA | DNDTREY | QDYYRLPLS | ND 1.73 2.33 ND 1.14 2.03 | 2 of 18 (2.29)
KISQSVNYLSRVMNSVA | DNSTRES | QQYFRLPLS | -0.15 0.08 -0.10 -0.28 -0.34 0.04 | 1 of 18 (3.02)
MISDLTMYGSRNVNSVA | DLSTRGS | QCYHRLPLS | ND 2.16 ND ND ND ND | 0 of 18
KISQMSTIESISHNSVA | QTSTRES | QQYDRLPLS | 0.74 0.63 0.13 0.28 0.45 0.66 | 1 of 18 (2.55)
KIGLVTNGISRSKNSVA | EQSTRES | QQYNRLPLS | 0.32 0.24 0.26 0.14 0.23 0.47 | 0 of 18
KLRQMTGTEGYFKNSVA | QASTREN | QSYHRLPLS | ND ND 1.68 1.45 1.42 1.55 | 0 of 18
MLSDIVKMGSRNTNSVA | DNSTRGS | QQYDRLPLS | 2.62 2.63 ND 2.11 1.82 3.21 | 0 of 18
KLLQEVSGRSQNRNSVA | HNSTRED | QQYDRLPLI | ND 3.26 2.69 2.26 ND 2.71 | 2 of 18 (2.62)
TVSQVHGMLQHNKNSVA | DMNTRGS | QQYDRLPLS | 0.48 0.24 0.12 0.01 0.16 0.21 | 2 of 18 (3.27)
SLMQVGGYESNAHNSIA | DLRTRES | QQYHRLPLS | ND 0.80 ND 0.26 ND 1.45 | 0 of 18
HFSQVTMYGYWNKNSVA | QTSTREE | QQYDHLPLS | ND ND ND ND ND ND | 0 of 18
MLLQATMYGERSRNSVA | HASTRED | QQYHRLPLI | 0.72 0.92 0.61 0.38 0.84 1.20 | 0 of 18
HISTSMRYESSLKNAIA | NEQTRES | QQYHRLPLS | 0.64 1.22 1.10 1.15 ND 1.12 | 0 of 18
MLYDSVLTLSRNKNSVA | DNSTRES | QQYDRLPLS | ND ND ND ND ND ND | 0 of 18
MSYGGDMMESVTRNSVA | NAETRED | QDYHRLPLS | -0.16 0.25 2.59 0.86 ND 1.49 | 0 of 18
HLGGLMTWEEKARNSVA | QQNTRVE | QQYHRLPLS | 0.73 0.35 0.94 0.48 0.35 0.58 | 0 of 18

The 4 strongest on average among those seen in every replicate, once more:

CDR-L1 | CDR-L2 | CDR-L3 | log10 Kd (nM) by replicate | control signals
KISQSVNYLSRVMNSVA | DNSTRES | QQYFRLPLS | -0.15 0.08 -0.10 -0.28 -0.34 0.04 | 1 of 18 (3.02)
TFSQSVLYESVHKNNVA | QTSTREE | QQYDHLPLS | 0.00 -0.31 -0.14 0.12 0.11 -0.10 | 0 of 18
HLGGTMTWESKAKNSVA | QSNTRAE | QQYHRLPLS | 0.26 0.22 0.17 -0.19 -0.04 0.28 | 4 of 18 (2.27)
MISDLTMYGSRNVNSVA | DLSTRGN | QQYDRLPLS | 0.26 0.07 0.07 0.16 0.08 0.15 | 0 of 18

The range of this assay differs from that of the first round, and the authors advise against merging the two.
In the paper, a design with two or fewer of six values counts as a poor binder.
Of ten entries with the parent sequence, four were seen in most replicates (averages 0.34 to 2.37), three in one and three in none, so single entries are noisy.
Background: pairings of all light chain designs with three empty control strains gave a value in 4% of cases (median 2.64, 5th percentile 1.59). Values in that range, when seen in few replicates, are hard to tell from nonspecific mating. The control count says in how many pairings with the empty strains this scFv gave a signal, with their mean in brackets.

Source: Li et al. 2023 (doi:10.1038/s41467-023-39022-2), MIT Lincoln Laboratory and A-Alpha Bio; data file from the FLAb repository.